Data reported in US20240408169A1 (priority 2023, published 2024).
Where two headings read alike, the source gives them in different places.

Tests used:
CyclinE1/CDK2 = target: T1, CyclinE1/CDK2 (Homo sapiens, UniProt P24864); experiment: Fluorescence Polarization (FP) competitive binding assay, Cyclin E1/Cdk2; conditions: average of 2-3 independent experiments;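 further: readings taken after two-hour equilibration at room temperature in HEPES buffer with NaCl, DTT, NP-40 and BSA, IC50 fitted from eight-concentration serial dilution series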
T1 construct: purchased Eurofins, discovery 14-475

CyclinB1/CDK1 = target: T2, CyclinB1/CDK1 (Homo sapiens, UniProt P14635); experiment: Fluorescence Polarization (FP) competitive binding assay, Cyclin B1/Cdk1; conditions: read-out: Cyclin B FP IC50; 10 nM Cyclin B1/Cdk1, 2 nM FAM probe; average of 2-3 independent experiments;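 further: fluorescence polarization read after equilibration at room temperature, with IC50 taken from serially diluted dose-response curves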
T2 construct: purchased Eurofins, discovery 14-450

CyclinA2/CDK2 = target: T3, CyclinA2/CDK2 (Homo sapiens, UniProt P20248); experiment: Fluorescence Polarization (FP) competitive binding assay, Cyclin A2/Cdk2; conditions: Cyclin A FP IC50, 8 nM Cyclin A2/Cdk2, 2 nM FAM probe; average of 2-3 independent experiments;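 further: plates equilibrated two hours at room temperature before polarization reading, IC50 fitted from eight-concentration compound titration curves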
T3 construct: purchased CRELUX Protein Services

IC50 (CyclinB1/CDK1) [nM] | IC50 (CyclinE1/CDK2; Cyclin E FP IC50, 10 nM Cyclin E1/Cdk2, 2 nM FAM probe) [nM] | IC50 (CyclinA2/CDK2) [nM] | Structure (SMILES) | IC50 (CyclinE1/CDK2; 10 nM Cyclin E1/Cdk2, 2 nM FAM probe, read-out: Cyclin E FP IC50) [nM]
– | – | – | CC(C)C[C@@H]1NC(=O)[C@@H](N(C)C(=O)[C@@H](NC(=O)[C@@H]2C[C@@H](F)CN2C(=O)C2(C(F)(F)F)CC(F)(F)C2)C2CC2)CCCCCCCNC(=O)[C@H](Cc2cc(Cl)ccc2-c2cnn(C)c2)N(C)C1=O [Example 66] | 450
20 | 2810 | 60 | CC(C)C[C@@H]1NC(=O)[C@@H](N(C)C(=O)[C@@H](NC(=O)[C@@H]2C[C@@H](F)CN2C(=O)C2(C(F)(F)F)CC(F)(F)C2)C2CC2)CCCCCCCNC(=O)[C@H](Cc2cc(Cl)ccc2-c2ccc3c(c2)COC32CN(C)C2)N(C)C1=O [Example 395] | –
